This is a selection; strong and weak results do not stand in their true shares. Inconclusive results are not listed. Active and inactive are the calls of the source. The call rests on the fitted dose curve; in most records, active means well fitted inhibition curve with a large enough effect; inconclusive means small, poorly fitted or top-dose-only effect, or another doubt; inactive means no such curve, though single readings can be large or run the other way.
The compounds below were run against DNA polymerase eta (Homo sapiens) (UniProt Q9Y253) (assay: qHTS for Inhibitors of Polymerase Eta). Settings: recombinant Pol eta, fluorescent DNA replication assay; at 114 µM (top of the series).
On the % scale 0 is the no-effect control and ±100 the full control effect.

By UniProt entry, the sequences of proteins in these tests, tags left out.
UniProt Q9Y253, whole entry: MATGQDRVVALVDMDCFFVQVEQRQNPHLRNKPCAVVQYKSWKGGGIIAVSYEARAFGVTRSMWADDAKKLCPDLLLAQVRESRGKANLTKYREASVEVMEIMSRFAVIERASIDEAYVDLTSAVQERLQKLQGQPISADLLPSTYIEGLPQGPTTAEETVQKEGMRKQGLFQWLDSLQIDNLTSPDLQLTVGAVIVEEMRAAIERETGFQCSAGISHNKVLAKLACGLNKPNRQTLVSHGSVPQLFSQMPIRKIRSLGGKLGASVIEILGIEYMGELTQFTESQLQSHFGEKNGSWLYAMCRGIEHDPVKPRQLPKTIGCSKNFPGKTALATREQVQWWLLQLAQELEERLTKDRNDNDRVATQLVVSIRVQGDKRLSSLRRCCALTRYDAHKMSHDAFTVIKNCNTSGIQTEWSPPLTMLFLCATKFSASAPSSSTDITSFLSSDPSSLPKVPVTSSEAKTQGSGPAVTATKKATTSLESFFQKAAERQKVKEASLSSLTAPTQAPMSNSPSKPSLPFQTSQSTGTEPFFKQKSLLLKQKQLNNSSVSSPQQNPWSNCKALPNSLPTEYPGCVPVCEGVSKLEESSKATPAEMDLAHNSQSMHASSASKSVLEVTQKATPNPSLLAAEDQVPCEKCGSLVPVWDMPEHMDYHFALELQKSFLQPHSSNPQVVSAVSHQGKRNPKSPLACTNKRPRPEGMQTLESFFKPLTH

SMILES | activity change, negative = inhibition
Cc1ccccc1NC1(C#N)CCN(Cc2ccccc2)CC1 | inactive: -12.6%
CCN1CCC(Nc2cccc(F)c2)CC1 | inactive: -16.4%
CC(C)(C)c1ccc(C(=O)NCC2(N3CCOCC3)CCCCC2)cc1 | inactive: -20.6%
O=C(NCC1(N2CCCCC2)CCCCC1)c1ccco1 | inactive: -3.43%
Cn1c(=O)[nH]cc(N(CCCl)CCCl)c1=O | inactive: -16.9%
CN(C)c1ccc(C(=O)NCC2(N3CCCCC3)CCCCC2)cc1 | inactive: -2.17%
Cc1ccccc1C(=O)NCC1(N(C)C)CCCCC1 | inactive: 6.66%
COc1cc(OC)cc(C(=O)NCC2(N3CCCCC3)CCCCC2)c1 | inactive: -8.03%
CC(=O)N(c1ccccc1)C1CCNCC1 | inactive: -13.1%
CN(C)C1(CNC(=O)c2ccc(C(C)(C)C)cc2)CCCCC1 | inactive: -10.2%
Cc1ccc(NC2(C#N)CCN(Cc3ccccc3)CC2)cc1 | inactive: -3.96%
Cc1ccc(C(=O)NCC2(N3CCCCC3)CCCCC2)o1 | inactive: -6.18%
Cc1ccc(Nc2c([N+](=O)[O-])cc([N+](=O)[O-])cc2[N+](=O)[O-])cc1 | inactive: -16.9%
Fc1ccccc1NC1CCN(Cc2ccccc2)CC1 | inactive: 3.68%
CCC(CO)(C(=O)OC1CN2CCC1CC2)c1ccccc1 (centres undefined) | inactive: -0.428%
COc1cccc(C(=O)N(c2cc(C)cc(C)c2)C2CCN(C(=O)OC(C)(C)C)CC2)c1 | inactive: -15.1%
COc1cc(C(=O)NCC2(N3CCOCC3)CCCCC2)cc(OC)c1OC | inactive: -11.1%
COc1cc(OC)cc(C(=O)NCC2(N3CCOCC3)CCCCC2)c1 | inactive: -5.15%
CN1CCC(Nc2ccc(Cl)cc2)CC1 | inactive: -17.1%
CCOc1ncccc1C(=O)NCC1(N2CCOCC2)CCCCC1 | inactive: -9.24%
CN1CCC(Nc2ccc(F)c(Cl)c2)CC1 | inactive: -18.3%
CCCOc1ccc(C(=O)NCC2(N(C)C)CCCCC2)cc1 | inactive: -8.98%
CC(C)(C)OC(=O)N1CCC(Nc2ccccc2)CC1 | inactive: -9.03%
O=C(O)C1(Nc2ccccc2)CCN(Cc2ccccc2)CC1 | inactive: -16.6%
N/C(=N\O)c1c(N)no[n+]1[O-] | inactive: -18.5%
CCOC(=O)N1CCC(Nc2ccc(C)cc2)CC1 | inactive: -3.87%
O=C(OC1CN2CCC1CC2)C1c2ccccc2C=Cc2ccccc21 (centres undefined) | inactive: -19.3%
CCc1cc(C(=O)NCC2(N3CCCCC3)CCCCC2)sc1C | inactive: -17%
O=C(NCC1(N2CCOCC2)CCCCC1)c1cc(Br)ccc1Cl | inactive: -8.77%

— PubChem BioAssay AID588591 (National Center for Advancing Translational Sciences (NCATS), 2011)
